Experimental data: patent US7863408B2, “Body fluid compatible and biocompatible resin” (Asahi Kasei Kabushiki Kaisha, priority 2002, dated 2011)
Read-outs that look alike come from different tables or passages of the source.

Legend:
[1] = Solubility in physiological saline; type: physicochemical; conditions: for dissolution ratio in terms of paclitaxel / dissolution ratio in terms of dexamethasone: physiological saline, 10 mg compound in 0.1 ml
[2] = Example 148; mouse plasma 37°C
[3] = Example 148; human plasma 37°C

Substance | dissolution of 10 mg compound in 0.1 ml of physiological saline ([1]; Example 145) | dissolution ratio in terms of paclitaxel ([1]; Example 145) [mg/mL] | release of paclitaxel, compared to compound (197) [2] | release of paclitaxel, compared to compound (197) [3] | dissolution of 10 mg compound in 0.1 ml of physiological saline ([1]; Example 162) | dissolution ratio in terms of dexamethasone ([1]; Example 162) [mg/mL]
carboxymethylated polyether-2′-Gly-Gly-Phe-Gly-paclitaxel [Compound (197)] | completely dissolved | 4.5 | – | – | – | –
carboxymethylated polyether-2′-Gly-Phe-paclitaxel [(189)] | completely dissolved | 4.0 | – | – | – | –
carboxymethylated polyether-2′-Gly-paclitaxel [Compound (177)] | completely dissolved | 3.9 | – | – | – | –
carboxymethylated polyether-2′-Leu-paclitaxel [(181)] | completely dissolved | 2.0 | – | – | – | –
carboxymethylated polyether-7-Gly-Gly-Phe-Gly-paclitaxel [(200)] | completely dissolved | 5.0 | moderate and sustained | moderate and sustained | – | –
carboxymethylated polyether-21-Ala-dexamethasone [Compound (209)] | – | – | – | – | completely dissolved | 3.5
carboxymethylated polyether-21-Ile-dexamethasone [(215)] | – | – | – | – | completely dissolved | 3.0
carboxymethylated polyether-21-Leu-dexamethasone [(212)] | – | – | – | – | completely dissolved | 4.0
